Activity calls are given as the source filed them. The calls are words filed in the database; no cut-off is given here.

The results in this text go back to ChEMBL document CHEMBL5537191, “Rebamipide and Derivatives are Potent, Selective Inhibitors of Histidine Phosphatase Activity of the Suppressor of T Cell Receptor Signaling Proteins” (J Med Chem, 2024).

This assay has as its target Ubiquitin-associated and SH3 domain-containing protein B (Homo sapiens) (UniProt Q8TF42). Put plainly: Inhibition of human STS-1 HP domain (369 to 636 residues) phosphatase activity expressed in Escherichia coli BL21 (DE3) using pNPP as substrate preincubated for 20 mins followed by substrate addition by absorbance based spectrophotometric analysis.
For the compound `O=C(NC(Cc1cc(=O)[nH]c2ccccc12)C(=O)NO)c1ccccc1` (centres undefined), the inhibition result was “inactive”. With `O=C(Nc1ccc(Cl)cc1)NC(Cc1cc(=O)[nH]c2ccccc12)C(=O)O` (centres undefined) the entry was “inactive”; with `CCCCc1ccc(C(=O)NC(Cc2cc(=O)[nH]c3ccccc23)C(=O)O)cc1` (centres undefined), “Active”; with `O=C(NC(Cc1cc(=O)[nH]c2ccccc12)C(=O)O)c1ccccc1Cl` (centres undefined), “Active”. With `COc1ccc(C(=O)NC(Cc2cc(=O)[nH]c3ccccc23)C(=O)O)cc1` (centres undefined) the entry was “Active”. As for `O=C(NC(Cc1cc(=O)[nH]c2ccccc12)C(=O)O)c1ccc(Oc2ccc(C(=O)NC(Cc3cc(=O)[nH]c4ccccc34)C(=O)O)cc2)cc1` (centres undefined), the entry is “Active”; as for `O=C(NC(Cc1cc(=O)[nH]c2ccccc12)C(=O)O)c1ccc(F)cc1` (centres undefined), “Active”. As for `O=C(NC(Cc1cc(=O)[nH]c2ccccc12)C(=O)O)c1ccc(Cl)c([N+](=O)[O-])c1` (centres undefined), the inhibition entry was “Active”. `Cc1ccc(C(=O)N[C@H](CSCc2cc(=O)[nH]c3ccccc23)C(=O)O)cc1`: the inhibition result was “inactive”.

As for `O=C(Nc1cc(Cl)cc(Cl)c1)NC(Cc1cc(=O)[nH]c2ccccc12)C(=O)O` (centres undefined), the inhibition entry is “inactive”. As for `O=C(COc1ccc(Cl)cc1)NC(Cc1cc(=O)[nH]c2ccccc12)C(=O)O` (centres undefined), the entry is “inactive”. Take `O=C(NC(Cc1cc(=O)[nH]c2ccccc12)C(=O)O)c1ccc(OC(F)(F)F)cc1` (centres undefined): the inhibition result was “Active”.

As to `O=C(NC(Cc1cc(=O)[nH]c2ccccc12)C(=O)O)c1cccc(C(F)(F)F)c1` (centres undefined), the inhibition entry was “Active”. With `N#Cc1ccc(C(=O)NC(Cc2cc(=O)[nH]c3ccccc23)C(=O)O)cc1` (centres undefined) the entry was “Active”.

`O=C(NC(Cc1cccc2ccccc12)C(=O)O)c1ccc(Cl)cc1` (centres undefined): the inhibition entry was “inactive”. As to `O=C(NC(Cc1c[nH]c2ccccc12)C(=O)O)c1ccc(Cl)cc1` (centres undefined), the inhibition entry is “inactive”. With `O=C(NC(Cc1cc(=O)[nH]c2ccccc12)C(=O)O)c1cccc(Cl)c1` (centres undefined) the entry was “Active”. With `Cc1ccc(C(=O)NC(Cc2cc(=O)[nH]c3ccccc23)C(=O)O)cc1` (centres undefined) the entry was “Active”.

`O=C(NC(Cc1cc(=O)[nH]c2ccccc12)C(=O)O)c1ccc(Cl)c(Cl)c1` (centres undefined): the inhibition entry is “Active”. With `O=C(O)c1ccccc1C(=O)NC(Cc1cc(=O)[nH]c2ccccc12)C(=O)O` (centres undefined), the inhibition result is “Active”. With `CCCCCCc1ccc(C(=O)NC(Cc2cc(=O)[nH]c3ccccc23)C(=O)O)cc1` (centres undefined) the entry was “Active”; with `O=C(NC(Cc1cc(=O)[nH]c2ccccc12)C(=O)O)c1ccc(F)c(F)c1` (centres undefined), “Active”; with `CCc1ccc(C(=O)NC(Cc2cc(=O)[nH]c3ccccc23)C(=O)O)cc1` (centres undefined), “Active”. `COC(=O)C(Cc1cc(=O)[nH]c2ccccc12)NC(=O)c1ccc(C)cc1` (centres undefined): the inhibition entry is “inactive”.
